IC50 data for one molecule are collected here from ChEMBL document CHEMBL5032521, “Design, synthesis and anti-tumor evaluation of 1,2,4-triazol-3-one derivatives and pyridazinone derivatives as novel CXCR2 antagonists” (Eur J Med Chem, 2021).

By UniProt entry, the sequences of proteins in these tests, tags left out.
UniProt P25025, whole entry: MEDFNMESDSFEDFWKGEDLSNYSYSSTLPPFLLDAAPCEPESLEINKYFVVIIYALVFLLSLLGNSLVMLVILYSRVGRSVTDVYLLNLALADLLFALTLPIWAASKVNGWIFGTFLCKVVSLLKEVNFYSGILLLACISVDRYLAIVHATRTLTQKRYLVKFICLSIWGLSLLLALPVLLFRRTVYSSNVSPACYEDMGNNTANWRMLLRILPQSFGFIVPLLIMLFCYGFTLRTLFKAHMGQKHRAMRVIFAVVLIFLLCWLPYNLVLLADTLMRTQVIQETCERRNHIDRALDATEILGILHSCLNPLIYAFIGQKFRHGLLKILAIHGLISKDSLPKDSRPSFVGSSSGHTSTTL

Structures are written as SMILES.

The target in this assay is C-X-C chemokine receptor type 2 (Homo sapiens, UniProt P25025). In words: Antagonist activity against CXCR2 (unknown origin) by calcium flux assay. It counts as functional. In general terms: Calcium flux is commonly read through the fluorescence of an indicator in the cells.

Take `O=C(Nc1ccc([N+](=O)[O-])cc1O)Nc1ccccc1Br`: the IC50 (as a rule, the concentration that inhibits the measured activity by half) amounted to 197 nM.
